Test results taken from ChEMBL document CHEMBL1156829 (Proc Natl Acad Sci U S A, 2008).

tested on: Huh-7; test: NOVARTIS: Cytotoxicity against human hepatocellular carcinoma cell line (Huh7); assay type: toxicity, cell-based

Question: Which CC50 does the source give for CN(C)[P+](C)(N(C)C)N(C)C here?
Answer: > 10 µM

Question: How did the CC50 turn out when CCCN(CCC)[P+](CC)(N(CCC)CCC)N(CCC)CCC was run?
Answer: 3.39 µM

Question: With CCCN(CCC)[P+](C)(N(CCC)CCC)N(CCC)CCC as the compound, how does the CC50 read?
Answer: > 61.2 µM
